The text below walks through data of paper PMC3858552, “The discovery of potent ribosomal S6 kinase inhibitors by high-throughput screening and structure-guided drug design” (Oncotarget, 2013).

Sequences of proteins named here, by UniProt entry; tags and fusion partners are left off. Residues count along the entry.
UniProt P23443, 1-421 T412E limits assumed: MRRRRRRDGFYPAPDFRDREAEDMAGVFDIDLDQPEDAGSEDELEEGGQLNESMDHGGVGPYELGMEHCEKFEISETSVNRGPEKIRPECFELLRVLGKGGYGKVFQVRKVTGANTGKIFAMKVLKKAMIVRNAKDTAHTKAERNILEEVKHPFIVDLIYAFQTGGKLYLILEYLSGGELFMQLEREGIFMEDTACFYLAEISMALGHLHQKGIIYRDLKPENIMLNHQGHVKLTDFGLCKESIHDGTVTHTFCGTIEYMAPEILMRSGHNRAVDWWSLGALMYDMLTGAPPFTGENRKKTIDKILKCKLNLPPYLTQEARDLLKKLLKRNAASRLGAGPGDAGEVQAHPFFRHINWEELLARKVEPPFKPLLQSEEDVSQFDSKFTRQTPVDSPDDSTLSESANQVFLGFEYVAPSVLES

The target of assay [1] is S6K1 (Homo sapiens, UniProt P23443, T412E). The assay can be described thus: S6K1 DELFIA phosphorylation assay (IC50 of screening hits). The conditions noted are these: for LE (ligand efficiency): calculated using the mean IC50 values; for IC50: read-out: S6K1 IC50, repurchased samples; for activity against S6K1 (in words): carboxamidobenzimidazole analogues.
Assay [2] has as its system poly(ADP-ribose) polymerase (PARP). As to conditions: cited from earlier work.
The mark [3] stands for this setting: Table 1, confirmation DELFIA assay, mean ± standard error, duplicate, >100 values single measurement.

Read-outs that look alike come from different tables or passages of the source. Where only a bound is given, the exact number is not on record here.

In the case of `NC(=O)c1cccc2[nH]c(-c3cccc(O)c3)nc12`, in assay [1] (Table 1), the “LE (ligand efficiency)” value was 0.44. In addition, the IC50 in assay [1] (setting [3]) is 1.04 µM.
Regarding `COc1cc(-c2nc3c(C(N)=O)cccc3[nH]2)ccc1O`, in assay [1] (Table 1), the “LE (ligand efficiency)” value is recorded as 0.33. Further, the IC50 in assay [1] (HTS hits) and in assay [1] (setting [3]) was 10.1 µM each time.
Take `O=C(O)c1cccc2[nH]c(-c3ccc(O)cc3)nc12`: in assay [2], the PARP activity result was “inactive against PARP”. The “activity against S6K1 (in words)” value in assay [1] is reported as “loss of activity”. For the same molecule, the IC50 in assay [1] (setting [3]) was greater than 100 µM.
For the molecule `NC(=O)c1ccc2[nH]c(-c3ccc(O)cc3)nc2c1`, the PARP activity result in assay [2] was “lacking PARP activity”. In addition, the “activity against S6K1 (in words)” value in assay [1] was “inactive”. The IC50 in assay [1] (setting [3]) is greater than 100 µM.
For the molecule `CNC(=O)c1cccc2[nH]c(-c3ccc(O)cc3)nc12`, the “activity against S6K1 (in words)” value in assay [1] is “inactive”. Moreover, the IC50 in assay [1] (setting [3]) is greater than 100 µM.
